Two compounds from article PMC11184559, “Identification and Validation of Compounds Targeting Leishmania major Leucyl-Aminopeptidase M17” (ACS Infectious Diseases, 2024) can be followed below.

The chains behind the UniProt entries cited, without tags or fusion partners. Where a name states a change or a piece, a line headed by the entry shows the natural chain unless it says otherwise.
UniProt P28838: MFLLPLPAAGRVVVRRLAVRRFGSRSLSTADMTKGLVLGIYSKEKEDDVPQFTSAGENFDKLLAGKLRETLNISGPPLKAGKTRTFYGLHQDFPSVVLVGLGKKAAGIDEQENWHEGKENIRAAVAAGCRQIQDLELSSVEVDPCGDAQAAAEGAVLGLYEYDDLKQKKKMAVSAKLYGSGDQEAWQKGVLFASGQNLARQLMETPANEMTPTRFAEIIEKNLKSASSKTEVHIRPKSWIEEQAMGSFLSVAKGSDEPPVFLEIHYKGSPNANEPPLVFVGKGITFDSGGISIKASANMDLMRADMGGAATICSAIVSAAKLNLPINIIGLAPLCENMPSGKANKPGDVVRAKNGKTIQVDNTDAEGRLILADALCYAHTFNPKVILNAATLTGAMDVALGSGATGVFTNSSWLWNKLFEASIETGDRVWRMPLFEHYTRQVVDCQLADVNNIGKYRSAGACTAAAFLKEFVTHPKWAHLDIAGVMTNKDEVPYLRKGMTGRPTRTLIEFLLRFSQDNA

Structures are written as SMILES.

Assay [1] has as its system L. donovani intracellular amastigotes.
A further assay has as its target T1, rHsLAP (Homo sapiens, UniProt P28838).
T1 construct: purchased Assay Genie, Ireland
The assay is described as follows: RapidFire-MS selectivity study against human LAP. It is filed as biochemical. Conditions: IC50(HsLAP)/IC50(rLmLAP). The method, then:
The reaction mixture included 600 μM (1× appKM) LSTVIVR substrate peptide, 1 mM ZnCl2, and the reaction time was 180 min. The inhibitors were tested at concentrations ranging from 0.78 to 100 μM to determine inhibitory activity.

`COc1ccc(Cc2c(N)nc(-c3ccccn3)nc2N)cc1` [DDD00057570]: in assay [1] (CC50 RAW 264.7 / EC50 L. donovani intracellular amastigotes), the “Selectivity index regarding RAW 264.7 cells” value is recorded as above 13. Besides, the “Selectivity index regarding THP-1 cells” value in assay [1] (CC50 THP-1 / EC50 L. donovani intracellular amastigotes) is given as above 13. At rHsLAP, the Selectivity index was above 30.

Consider `O=C(c1cccs1)N(CCCn1ccnc1)c1nc2ccccc2s1` [DDD00097924], for which the Selectivity index on rHsLAP is recorded as 3.
